Results taken from patent publication US20250360143A1, “COMPOSITIONS AND METHODS FOR PHARMACOLOGIC TREATMENT OF STROKE AND MYOCARDIAL ISCHEMIA REPERFUSION INJURY” (priority 2022, published 2025).

Tests used:
hP2X2/3R = biological target: T1, hP2X2/3R (Homo sapiens, UniProt P56373+Q9UBL9); experiment: cell-based; conditions: CHO-K1, read-out: hP2X2/3R % inhib.
T1 construct: expressed in transfected cells; host or cells: CHO-K1
T1 sequence (Q9UBL9 1-471): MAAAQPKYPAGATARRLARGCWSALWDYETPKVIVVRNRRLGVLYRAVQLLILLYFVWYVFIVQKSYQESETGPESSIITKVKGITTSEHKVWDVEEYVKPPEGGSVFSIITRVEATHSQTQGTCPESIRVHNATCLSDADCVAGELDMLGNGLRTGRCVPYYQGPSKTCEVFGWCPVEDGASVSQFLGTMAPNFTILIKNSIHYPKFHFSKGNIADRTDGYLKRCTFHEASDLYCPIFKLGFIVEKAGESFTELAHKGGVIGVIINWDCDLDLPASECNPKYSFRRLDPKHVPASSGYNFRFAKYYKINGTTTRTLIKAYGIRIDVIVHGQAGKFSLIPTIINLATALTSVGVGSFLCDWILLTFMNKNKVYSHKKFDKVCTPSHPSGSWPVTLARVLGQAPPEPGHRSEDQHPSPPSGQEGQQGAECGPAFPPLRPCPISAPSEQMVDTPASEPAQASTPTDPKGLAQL
T1 sequence (P56373 1-397): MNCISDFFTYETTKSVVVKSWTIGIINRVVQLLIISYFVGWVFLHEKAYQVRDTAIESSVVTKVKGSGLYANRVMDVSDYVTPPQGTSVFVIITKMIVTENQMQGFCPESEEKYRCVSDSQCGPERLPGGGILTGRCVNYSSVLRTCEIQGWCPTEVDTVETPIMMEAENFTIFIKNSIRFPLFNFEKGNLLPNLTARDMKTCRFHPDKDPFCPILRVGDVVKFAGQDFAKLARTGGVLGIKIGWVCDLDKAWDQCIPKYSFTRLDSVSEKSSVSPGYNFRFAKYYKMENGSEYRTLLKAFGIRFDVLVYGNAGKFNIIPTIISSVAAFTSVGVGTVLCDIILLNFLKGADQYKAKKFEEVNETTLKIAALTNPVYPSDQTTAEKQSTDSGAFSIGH

hP2X1R = biological target: T2, hP2X1R (Homo sapiens, UniProt P51575); experiment: cell-based; conditions: CHO-K1, read-out: hP2X1R % inhib.
T2 construct: expressed in transfected cells; host or cells: CHO-K1
T2 sequence (P51575 1-399): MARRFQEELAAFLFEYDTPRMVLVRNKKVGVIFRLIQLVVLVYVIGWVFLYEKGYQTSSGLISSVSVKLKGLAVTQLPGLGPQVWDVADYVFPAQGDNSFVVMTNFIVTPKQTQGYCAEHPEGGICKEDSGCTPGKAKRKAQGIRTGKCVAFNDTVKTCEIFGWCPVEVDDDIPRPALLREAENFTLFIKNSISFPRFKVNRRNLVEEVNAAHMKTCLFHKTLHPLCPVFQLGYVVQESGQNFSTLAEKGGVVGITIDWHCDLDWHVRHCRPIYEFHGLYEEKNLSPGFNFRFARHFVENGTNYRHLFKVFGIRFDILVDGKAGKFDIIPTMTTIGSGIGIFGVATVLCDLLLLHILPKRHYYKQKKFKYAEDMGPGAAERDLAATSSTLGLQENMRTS

hP2X3R = biological target: T3, hP2X3R (Homo sapiens, UniProt P56373); experiment: cell-based; conditions: CHO-K1, read-out: hP2X3R % inhib.
T3 construct: expressed in transfected cells; host or cells: CHO-K1
T3 sequence (P56373 1-397): T1 sequence (P56373 1-397)

hP2X4R = biological target: T4, hP2X4R (Homo sapiens, UniProt Q99571); assay type: cell-based; conditions: for hP2X4R inhibitory activity relative to 22a, in words: SAR comparison with reference antagonist 22a; for IC50: agonist CTP 10 μM (~EC80)
T4 construct: expressed in transfected cells; host or cells: HEK-293
T4 sequence (Q99571 1-388): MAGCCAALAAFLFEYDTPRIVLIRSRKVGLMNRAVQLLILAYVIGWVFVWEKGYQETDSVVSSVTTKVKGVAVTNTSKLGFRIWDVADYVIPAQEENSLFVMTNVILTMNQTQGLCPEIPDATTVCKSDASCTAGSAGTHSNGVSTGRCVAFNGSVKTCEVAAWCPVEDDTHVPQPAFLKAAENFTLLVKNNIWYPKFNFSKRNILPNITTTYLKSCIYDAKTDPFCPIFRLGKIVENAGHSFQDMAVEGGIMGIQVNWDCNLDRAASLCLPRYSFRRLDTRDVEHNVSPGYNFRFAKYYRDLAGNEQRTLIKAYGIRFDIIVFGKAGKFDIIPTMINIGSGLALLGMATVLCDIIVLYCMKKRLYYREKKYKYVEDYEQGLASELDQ

[1] = system: middle-aged mice after MCAo; conditions: four weeks after MCAo

SMILES | inhibition at 30 µM (hP2X2/3R) | inhibition at 30 µM (hP2X1R) | inhibition at 30 µM (hP2X3R) | hP2X4R inhibitory activity relative to 22a, in words (hP2X4R) | IC50 (hP2X4R) | decrease of hP2X4R inhibitory activity relative to 22a (hP2X4R; vs known antagonist 22a) | learning and memory function after stroke, NORT, across doses [1] | selectivity for P2X4R versus hP2X1R, hP2X2/3R and hP2X3R (hP2X4R; in words)
O=C1CC(=O)N(c2cccc(-c3noc(=S)[nH]3)c2)c2cc(Br)c3ccccc3c2N1 [Compound 21d, 7-Bromo-5-(3-(5-thioxo-4,5-dihydro-1,2,4-oxadiazol-3-yl)phenyl)-1,5-dihydro-2H-naphtho[1,2-b][1,4]diazepine-2,4(3H)-dione triethylamine salt] | 11% | 5% | 7% | only moderately reduced activity | 9.51 µM | – | – | –
Cc1ccc2ccc3c(c2c1)NC(=O)CC(=O)N3c1cccc(-c2noc(=S)[nH]2)c1 [Compound 22b] | 9% | 6% | 13% | – | 17.9 µM | 13 fold | – | –
O=C1CC(=O)N(c2ccnc(-c3noc(=S)[nH]3)c2)c2ccc3ccccc3c2N1 [Compound 21u, 5-(2-(5-Thioxo-4,5-dihydro-1,2,4-oxadiazol-3-yl)pyridin-4-yl)-1,5-dihydro-2H-naphtho[1,2-b][1,4]diazepine-2,4(3H)-dione triethylamine salt] | 0% | 15% | 11% | – | – | – | dose dependent improvement | –
Cc1ccc2c3c(ccc2c1)N(c1cccc(-c2noc(=S)[nH]2)c1)C(=O)CC(=O)N3 [Compound 22c] | 11% | -4% | 6% | did not lower the inhibitory activity | 1.38 µM | – | – | selective

Where a name gives a salt, the structure may show the parent alone.
